Source: patent US6750008B1, “Methods and compositions for inhibition of membrane fusion-associated events, including HIV transmission” (priority 1999, dated 2004)

Chains of the proteins cited; added tags and fusions are not shown. Residues count along the entry.
UniProt P03420, 142-302: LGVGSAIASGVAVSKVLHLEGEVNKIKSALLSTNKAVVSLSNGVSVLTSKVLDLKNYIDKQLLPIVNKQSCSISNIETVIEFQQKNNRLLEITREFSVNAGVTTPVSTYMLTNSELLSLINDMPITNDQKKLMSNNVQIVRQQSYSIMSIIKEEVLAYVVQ

How the values were obtained:
[1] = biological target: T1, DP107-like domain of the RSV F1 protein (Human respiratory syncytial virus A, UniProt P03420); assay type: binding
T1 construct: made in house
Procedure: After incubation and washing, unbound Fab-d is removed from the plates and bound Fab-d is quantitated. A no-inhibitor control should also be conducted.
Such an assay takes advantages of accepted radioligand and receptor binding principles.
Specifically, the DNA sequence corresponding amino acid residues 142-302 of the RSV F1 protein was amplified by PCR and cloned into the Xmn I site of the expression vector pMal-p2 (New England Biolab) to give MF5.1. These amino acid residues correspond to the extracellular domain of the RSV F1 protein including its DP107 region but excluding the DP178 region.
Cell fusion assays were performed with each of the peptides as described in Section 17 above. The binding affinity of each peptide was also measured in a competitive binding assay described in Section 5.6.1 above, wherein the concentration of each peptide necessary to bind to the M5.1 fusion protein (i.e., the B50 value), and thereby disrupt binding of biotin labeled T112 (T888) to the fusion protein, was measured.

[2] = tested on: RSV; test: Anti-RSV antiviral activity assay (syncytial formation, Hep-2 cells); assay type: cell-based, respiratory syncytial virus; conditions: purified peptides
Procedure: The assay utilized herein tested the ability of the peptides to disrupt the ability of HEp2 cells acutely infected with RSV (i.e., cells which are infected with a multiplicity of infection of greater than 2) to fuse and cause syncytial formation on a monolayer of uninfected an uninfected line of Hep-2 cells. The lower the observed level of fusion, the greater the antiviral activity of the peptide was determined to be. […]
After incubation, cells in control wells were checked for fusion centers, media was removed from the wells, followed by addition, to each well, of either Crystal Violet stain or XTT. […] The number of syncytia per well were then counted, using a dissecting microscope.
With respect to XTT (2,3-bis[2-Methoxy-4-nitro-5-sulfophenyl]-2H-tetrazolium-5-carboxyanilide inner salt), 50 μl XTT (1 mg/ml in RPMI buffered with 100 mM HEPES, pH 7.2-7.4, plus 5% DMSO) were added to each well. The OD450/690 was measured (after blanking against growth medium without cells or reagents, and against reagents) according to standard procedures. […]

CC[C@H](C)[C@H](NC(=O)[C@H](Cc1ccccc1)NC(=O)[C@H](C)NC(=O)[C@H](CC(C)C)NC(=O)[C@H](CO)NC(=O)[C@H](CCC(N)=O)NC(=O)[C@H](CC(N)=O)NC(=O)[C@@H](NC(=O)[C@H](CCCCN)NC(=O)[C@H](CCC(=O)O)NC(=O)[C@H](CC(N)=O)NC(=O)[C@@H](NC(=O)[C@H](CCC(N)=O)NC(=O)[C@H](CO)NC(=O)[C@@H](NC(=O)[C@H](CO)NC(=O)[C@H](C)NC(=O)[C@H](CC(=O)O)NC(=O)[C@H](Cc1ccccc1)NC(=O)[C@H](CCC(=O)O)NC(=O)[C@H](CC(=O)O)NC(C)=O)[C@@H](C)CC)C(C)C)[C@@H](C)CC)C(=O)N[C@@H](CCCNC(=N)N)C(=O)N[C@@H](CCCCN)C(=O)N[C@@H](CO)C(=O)N[C@@H](CC(=O)O)C(=O)N[C@@H](CCC(=O)O)C(=O)N[C@@H](CC(C)C)C(=O)N[C@@H](CC(C)C)C(N)=O [T-67]
binding affinity relative to T112 [1]: five times lower
anti-RSV antiviral activity [2]: potent anti-viral activity
